IC50 data for one substance are collected here from patent US10501412B2, “Conjugates of cell binding molecules with cytotoxic agents” (HANGZHOU DAC BIOTECH CO., LTD., priority 2012, dated 2019).

Read-outs that look alike come from different tables or passages of the source.

The subject of the assay is KPL-4 (breast cancer cell line). Put plainly: In vitro cytotoxicity (clonogenic assay) on KPL-4. The class given is cell-based.

For Trastuzumab-TZ03 conjugate, the IC50 turned out to be 0.09 nM (in the absence of unconjugated Trastuzumab (as restated in the specificity window), read-out: IC50, antiproliferative effect) and 0.09 nM (in the absence of unconjugated Trastuzumab, DAR 3.5˜4.0, read-out: IC50, antiproliferative effect).

One may read the IC50 as the concentration that inhibits the measured activity by half.
